Assay results: patent US9682141B2, “Combination of kinase inhibitors and uses thereof” (INTELLIKINE LLC, priority 2011, dated 2017)

Protein sequences, listed by entry. Tags and fused reporters are not part of them. Lines headed by an entry give the natural chain unless they say otherwise; changes in a name come on top.
UniProt P42336, whole entry: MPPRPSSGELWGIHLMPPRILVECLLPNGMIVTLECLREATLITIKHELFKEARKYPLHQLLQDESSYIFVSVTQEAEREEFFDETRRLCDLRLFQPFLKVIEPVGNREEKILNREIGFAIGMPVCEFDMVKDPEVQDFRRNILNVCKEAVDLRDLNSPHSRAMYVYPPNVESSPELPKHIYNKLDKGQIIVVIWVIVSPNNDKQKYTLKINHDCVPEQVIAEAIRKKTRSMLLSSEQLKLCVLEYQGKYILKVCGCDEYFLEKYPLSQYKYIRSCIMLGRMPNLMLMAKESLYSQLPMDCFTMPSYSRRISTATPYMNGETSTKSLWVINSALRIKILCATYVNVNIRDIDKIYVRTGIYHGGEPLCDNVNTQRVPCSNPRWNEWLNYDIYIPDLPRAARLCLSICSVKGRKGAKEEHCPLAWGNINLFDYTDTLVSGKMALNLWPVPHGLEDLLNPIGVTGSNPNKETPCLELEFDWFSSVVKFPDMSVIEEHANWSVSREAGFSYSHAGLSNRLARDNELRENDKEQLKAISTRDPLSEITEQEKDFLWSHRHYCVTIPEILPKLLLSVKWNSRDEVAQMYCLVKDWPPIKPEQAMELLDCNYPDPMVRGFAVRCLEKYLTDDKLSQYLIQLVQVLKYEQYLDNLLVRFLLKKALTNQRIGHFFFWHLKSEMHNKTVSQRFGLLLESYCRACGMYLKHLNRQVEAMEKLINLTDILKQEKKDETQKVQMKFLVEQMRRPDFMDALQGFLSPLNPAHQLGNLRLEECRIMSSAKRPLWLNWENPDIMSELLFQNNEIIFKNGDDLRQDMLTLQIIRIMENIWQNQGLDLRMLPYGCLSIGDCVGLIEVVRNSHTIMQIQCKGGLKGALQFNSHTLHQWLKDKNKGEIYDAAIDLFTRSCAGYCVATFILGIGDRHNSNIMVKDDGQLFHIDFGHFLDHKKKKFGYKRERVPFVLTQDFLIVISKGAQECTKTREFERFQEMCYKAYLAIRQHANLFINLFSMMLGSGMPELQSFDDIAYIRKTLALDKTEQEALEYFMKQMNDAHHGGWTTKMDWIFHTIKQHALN
UniProt O00329: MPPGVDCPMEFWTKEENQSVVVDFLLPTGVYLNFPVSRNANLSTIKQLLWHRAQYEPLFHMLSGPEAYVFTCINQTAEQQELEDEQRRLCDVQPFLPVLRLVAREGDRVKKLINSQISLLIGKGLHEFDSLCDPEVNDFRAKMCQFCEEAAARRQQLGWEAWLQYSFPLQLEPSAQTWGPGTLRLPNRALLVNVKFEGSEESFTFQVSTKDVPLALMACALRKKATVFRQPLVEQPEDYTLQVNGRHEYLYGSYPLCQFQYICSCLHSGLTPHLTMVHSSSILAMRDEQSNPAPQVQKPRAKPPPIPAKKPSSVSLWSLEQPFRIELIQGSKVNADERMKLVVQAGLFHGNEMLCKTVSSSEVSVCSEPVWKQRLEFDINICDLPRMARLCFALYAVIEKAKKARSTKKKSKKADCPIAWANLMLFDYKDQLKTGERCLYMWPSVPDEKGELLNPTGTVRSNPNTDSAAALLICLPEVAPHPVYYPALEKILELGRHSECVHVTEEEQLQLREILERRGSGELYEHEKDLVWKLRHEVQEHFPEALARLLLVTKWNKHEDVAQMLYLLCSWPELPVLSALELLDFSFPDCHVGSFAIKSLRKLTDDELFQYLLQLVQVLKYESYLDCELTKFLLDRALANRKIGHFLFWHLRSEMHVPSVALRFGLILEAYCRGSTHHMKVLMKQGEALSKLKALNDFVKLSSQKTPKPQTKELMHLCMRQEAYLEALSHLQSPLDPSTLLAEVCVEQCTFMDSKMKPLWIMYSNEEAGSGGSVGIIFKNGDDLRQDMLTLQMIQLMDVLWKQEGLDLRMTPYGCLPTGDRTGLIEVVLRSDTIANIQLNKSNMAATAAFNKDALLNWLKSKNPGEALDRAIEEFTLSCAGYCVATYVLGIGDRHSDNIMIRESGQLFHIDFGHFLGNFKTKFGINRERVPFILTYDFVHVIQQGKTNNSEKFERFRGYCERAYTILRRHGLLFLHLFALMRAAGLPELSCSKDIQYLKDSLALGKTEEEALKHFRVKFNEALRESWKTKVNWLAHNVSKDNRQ

Experiments:
PI3K α = PI3K α (Homo sapiens (Human), UniProt P42336); test: PI 3-Kinase (human) HTRF assay, p110α/p85α; format: biochemical
PI3K δ = PI3K δ (Homo sapiens (Human), UniProt O00329); test: PI 3-Kinase (human) HTRF assay, p110δ/p85α; format: biochemical

Nc1nc2cc(-c3ccc4ncc(C(=O)N[C@H]5CC[C@H](O)CC5)n4c3)ccc2o1 showed an IC50 (PI3K α) of less than 100 nM and an IC50 (PI3K δ) of less than 100 nM.
